Patent US20070207975A1, “Materials and methods for treating and preventing Her-2/neu overexpressing, FAS-elevated cancer cells” (EVANSTON NORTHWESTERN HEALTHCARE, priority 2006, published 2007)

Legend:
Format in all cases: cell-based, human
PARP = assay: Western blot of p85 PARP cleavage fragment; conditions: BT-474; 72 hours
Method: FIG. 6. […] After 72 hours, a TUNEL analysis was performed using the DeadEnd® Fluorometric TUNEL System (Promega Inc.) according to the manufacturer's protocol. The immunofluorescence photomicrographs of cells undergoing apoptosis (green staining) and the corresponding DAPI-counterstained photomicrographs are shown. […] Equal amounts of total protein (50 μg per lane) were subjected to Western blot analyses with a specific antibody against the p85 fragment of PARP, and then re-probed with a β-actin antibody. […] Similar results were obtained in three independent experiments. […] For each pair of columns, the height of the columns on the left represents the sum of the effect of each agent alone and, therefore, the expected apoptotic cell death if their effect was additive when used in combination. […]
(§1) The lysates were cleared by centrifugation in an Eppendorf tube (15 minutes at 14,000 r.p.m. at 4° C.). Protein content was determined against a standardized control using the Pierce protein assay kit (Rockford, Ill.). […] The membranes were washed in TBS-T, horseradish peroxidase-conjugated secondary antibodies (Jackson Immunoresearch Laboratories) in TBS-T were added for 1 hour, and immunoreactive bands were detected by enhanced chemiluminescence reagent (Pierce). […] Densitometric values of protein bands were quantified using Scion Imaging Software (Scion Corp., Frederick, Md.).

p185^Her-2/neu = assay: Flow cytometric analysis of cell surface-associated p185Her-2/neu; conditions: for down-regulation of p185^Her-2/neu expression: OA 5 mM, trastuzumab 5 mg/ml
Method: FIG. 1. Flow cytometric analysis of cell surface-associated p185^Her-2/neu in Her-2/neu-overexpressing BT-474 and SK-Br3 breast cancer cells exogenously supplemented with OA. Overnight serum-starved BT-474 and SK-Br3 breast cancer cells were cultured in Improved Minimum Essential Medium (IMEM; Richter's medium; Biosource International, Camarillo, Calif.) -0.1% FBS in the presence or absence of 20 mM OA for 48 hours. The specific surface expression of p185^Her-2/neu in OA-treated cells was determined by flow cytometry by measuring the binding of a mouse anti-p185^Her-2/neu monoclonal antibody directed against the extracellular domain of p185^Her-2/neu (Ab-5 clone), as described herein. The mean fluorescence signal±SD (n=3) associated with cells for labeled p185^Her-2/neu was quantified using the geo mean fluorescence (GM) parameter provided with the Cell Quest Software (Becton Dickinson). FIG. 2. Exogenous supplementation with OA synergistically enhances trastuzumab-induced down-regulation of p185^Her-2/neu. […] The amount of cell surface-associated p185^Her-2/neu was quantified by flow cytometric analyses using a specific antibody against the extracellular domain of p185^Her-2/neu (Ab-5), as described herein. The mean fluorescence signal±SD (n=3) was quantified using the geo mean fluorescence (GM) parameter provided with the Cell Quest Software (Becton Dickinson). […] After labeling, cells were washed thoroughly, and localization of p185^Her-2/neu was detected by indirect immunofluorescence by incubating with FITC-conjugated anti-mouse IgG. […] A) Cell surface expression of Her-2/neu protein in BT-474 and SK-Br3 cells was determined by flow cytometry using a mouse anti-Her-2/neu antibody directed against the extracellular domain of the p185^Her-2/neu oncoprotein (clone Ab-5; Oncogene Research Products; San Diego, Calif.). […] The mean fluorescence signal associated with cells for labeled p185^Her-2/neu was quantified using the Geo Mean (GM) fluorescence parameter provided with the software. […] Immunoreactive bands were detected by enhanced chemiluminescence reagent (Pierce, Rockford, Ill.). […]

[1] = tested on: phospho-MAPK and phospho-Ser^473 AKT; assay: Western blot of phospho-MAPK and phospho-AKT; conditions: BT-474; 48 hours; OA 5 μM, trastuzumab 10 μg/ml in combination
Method: FIG. 8. Exogenous supplementation with OA enhanced trastuzumab-induced inhibition of AKT and MAPK phosphoproteins. […] Equal amounts of total protein (25 mg per lane) were subjected to Western blot analyses with anti-phospho-AKT^Ser473 or anti-phospho-MAPK antibodies, and then re-probed with anti-AKT, anti-MAPK and β-actin antibodies. […] Similar results were obtained in three independent experiments.
as §1, with “Ill.). Equal amounts of protein were heated in SDS sample buffer (Laemli buffer) for 10 minutes at 70° C., subjected to electrophoresis on either 3-8% NuPAGE or 10% SDS-PAGE (p27^Kip1, ^PARP, MAPK and AKT), and then transferred to nitrocellulose membranes.” for “Ill.).”

Substance: trastuzumab: humanized monoclonal IgG1, binding with high affinity to the ectodomain of p185^Her-2/neu [reference compound]
- p85 PARP degradation product (PARP): small amount
- down-regulation of p185^Her-2/neu expression (p185^Her-2/neu; BT-474 cells, alone or concurrently combined): 8%
- down-regulation of p185^Her-2/neu expression (p185^Her-2/neu; SK-Br3 cells, alone or combined): 26%
- reduction of cell surface-associated p185^Her-2/neu expression (p185^Her-2/neu; optimal concentration, 20 mg/ml trastuzumab): up to 48%
- active MAPK and active AKT (phospho-MAPK, phospho-Ser^473 AKT) [1]: significantly inhibited MAPK as well as AKT function
